# Binding of CDR-mutated scFvs to a peptide of the spike HR2 region

Data: MIT Lincoln Laboratory AlphaSeq set, Engelhart et al. 2022, doi:10.1038/s41597-022-01779-4, as distributed in FLAb.

Antigen: PDVDLGDISGINAS, a 14-residue peptide of the SARS-CoV-2 spike HR2 region.

Ab-95 is the parent antibody, in scFv form: VH, then three GGGGS repeats, then VL. The heavy chain is unchanged in all variants.
VH: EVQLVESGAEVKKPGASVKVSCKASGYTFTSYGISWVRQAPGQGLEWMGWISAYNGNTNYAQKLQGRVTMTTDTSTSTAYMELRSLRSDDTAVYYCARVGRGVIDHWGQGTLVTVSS
VL: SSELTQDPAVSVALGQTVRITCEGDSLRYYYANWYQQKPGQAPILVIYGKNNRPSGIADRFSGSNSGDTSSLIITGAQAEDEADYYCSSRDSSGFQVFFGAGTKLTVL

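The parent was found by panning a naive human phage display library on the peptide. In library AAYL52, one, two or three CDR residues were substituted; doubles and triples were drawn at random. In AlphaSeq, yeast of one mating type display the scFv and yeast of the other type display the target. After mating in shaken culture at 30 °C for 16 h, diploids were selected and their barcode pairs sequenced. Scores were corrected for input abundance and mapped to Kd with protein pairs of known affinity run in the same pool. There are three technical replicates.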

Each variant is given by its three light chain CDRs, as the data file delimits them; those of the parent are EGDSLRYYYAN, GKNNRPS, SSRDSSGFQVF.
Scale: log10 of Kd in nM, estimated from mating counts; low values are strong binders.
A mean of the replicates is given; it leaves out those without a signal.
A pair that was not seen in any replicate is written "nd"; this usually means weak binding, but a binder can also be missed.
Parent in this assay: reference entry 2.31, copy in this library 2.25.

CDR-L1,CDR-L2,CDR-L3,"log10 Kd (nM), mean",replicates with signal,signal with controls
EGDKLRYYYAN,GKNNRPS,SSRSSSGFQVF,4.14,1/3,3/9
EGDSLRYHYAN,GKNNRPS,SSYDSSGFHVF,nd,0/3,1/9
EGDSLRYYYAN,MKNNRPS,SCEDSSGFQVF,3.45,1/3,4/9
EGDSLWYYYAN,GKNNRPL,SSRDHSGFQVF,3.70,2/3,0/9
EGMSLRYYYAN,EKNNRPS,SSRDSSGFQKF,4.00,1/3,1/9
EGDSDRYYYAN,GKNNRPS,SARDSAGFQVF,4.42,2/3,2/9
EGDSLRYYYAN,RKWNRPE,SSRDSSGFQVF,3.39,1/3,1/9
EGDSLRYYYAN,HKNIRPY,SSRDSSGFQVF,3.69,3/3,6/9
EGDSLRYYYAN,GKHCRPS,SSRDSSIFQVF,3.95,1/3,4/9
EGDSLRYYYAN,AKNKRPF,SSRDSSGFQVF,3.68,2/3,5/9
EGYSLRMYYAN,GKNNRPS,SSRDSSGFCVF,3.82,3/3,2/9
NGDSLRYYYAN,GSNNRPS,WSRDSSGFQVF,2.76,3/3,6/9
EGDSLRYYYAN,GKPNSPS,SSRESSGFQVF,5.12,2/3,3/9
EGDSLRCYYAN,GKNNRPS,SSRDSSGVWVF,3.97,2/3,5/9
EGDSLRYYLAN,GKNNRPS,SSRDHSEFQVF,2.47,3/3,5/9
EGDSLRFYYAN,GKNNDPS,SSRDSSHFQVF,3.98,2/3,3/9
EGDSLRYYYAN,GKNNRNS,YSRDPSGFQVF,3.95,2/3,2/9
EGDSLRYYYYN,GNNNRPS,SRRDSSGFQVF,2.64,3/3,3/9
EGDSLRYYYAN,GKNQRPY,SSRDNSGFQVF,2.34,3/3,1/9
EGDSLQYYYKN,GQNNRPS,SSRDSSGFQVF,1.82,3/3,4/9
EGDSLRYYYEN,GKNNRPS,HSRDSSGFQSF,4.59,3/3,4/9
EGDSLRYYYAN,GKNPRPS,SSRDSSVFNVF,3.11,1/3,4/9
EGDSLRYYYAN,WKNNFPS,SSRDSSGQQVF,nd,0/3,0/9
EIYSLRYYYAN,GKNKRPS,SSRDSSGFQVF,3.02,3/3,2/9
EGDSLWYYYHN,GKNNRPS,SSRDSSGFQVF,nd,0/3,1/9
EGDSLRYYYAN,GKNNRPS,SSRDSSEYQSF,4.93,1/3,1/9
EGDSLRYYYTN,GKNNRPS,SSRDSSYFQVF,2.11,3/3,3/9
EGRSLRYYYAN,QKNNRPS,KSRDSSGFQVF,nd,0/3,1/9
EGDSMRVYYAN,GKNNRPS,SSRDSSGFDVF,nd,0/3,3/9
EGDSLRYYYAN,GKNNRPS,SWRDSIGGQVF,3.21,2/3,2/9
EFQSLRYDYAN,GKNNRPS,SSRDSSGFQVF,2.51,3/3,0/9
LGDSLRYYYAN,GKNNRPS,HSRDKSGFQVF,1.23,3/3,3/9
EGDSLRVYYAN,EKNNRPS,MSRDSSGFQVF,2.82,2/3,0/9
EGDSERYYYAN,GKNNRHS,SSLDSSGFQVF,2.95,1/3,1/9
EGDSLRYYYMN,GKTNRPS,SSQDSSGFQVF,nd,0/3,1/9
EGDSLRYAYAN,GKKNRPS,SSRDSSGDQVF,1.89,3/3,2/9
EGDSLRYYYAN,GKNNRPS,SSRDSSGNFVM,3.34,1/3,1/9
EGDSLRYGWAN,GKNNRPS,SSRDQSGFQVF,0.77,3/3,7/9
EGDSLRPYHAN,GKNNRCS,SSRDSSGFQVF,3.61,2/3,0/9
IGDSLRYYYAN,GKVNRPS,SSRDSSGFQVF,4.42,2/3,3/9
EGDSLSYYYAN,PKINRPS,SSRDSSGFQVF,3.21,1/3,4/9
EGDSLRYYYAN,GCNNCRS,SSRDSSGFQVF,4.37,1/3,4/9
EGDSLYYYYAN,GLNNRPS,SSRQSSGFQVF,3.64,2/3,0/9
EGDSLPYNYAN,GKNNRPS,CSRDSSGFQVF,1.34,3/3,6/9
EGDSLRMYYAN,GKYNRPS,SSYDSSGFQVF,3.87,2/3,4/9
EGDSLRYYYAP,GVNNRPS,SSRDSSGFQVF,nd,0/3,2/9
EGDSLRYYKAN,VYNNRPS,SSRDSSGFQVF,5.16,1/3,2/9
EGDSLRYYYGN,GKNNHPS,SSRDSSGFGVF,4.62,1/3,5/9
CGISLRYYYAN,GKNNRPS,SSRDSSGFQVF,3.22,3/3,0/9
EEDSLRYYYAQ,GKNNRPS,SSRDSLGFQVF,nd,0/3,1/9
NGWHLRYYYAN,GKNNRPS,SSRDSSGFQVF,3.16,3/3,1/9
EGDSLHYYYAN,GCNNRPS,SSRDSSGFQVF,2.60,3/3,3/9
EGDSWRYYYAN,GKNNRPS,SSRDSSGCQVV,nd,0/3,1/9

Again, the first 8 entries without any signal:

{"CDR-L1": "EGDSLRYHYAN", "CDR-L2": "GKNNRPS", "CDR-L3": "SSYDSSGFHVF", "log10 Kd (nM), mean": "nd", "replicates with signal": "0/3", "signal with controls": "1/9"}
{"CDR-L1": "EGDSLRYYYAN", "CDR-L2": "WKNNFPS", "CDR-L3": "SSRDSSGQQVF", "log10 Kd (nM), mean": "nd", "replicates with signal": "0/3", "signal with controls": "0/9"}
{"CDR-L1": "EGDSLWYYYHN", "CDR-L2": "GKNNRPS", "CDR-L3": "SSRDSSGFQVF", "log10 Kd (nM), mean": "nd", "replicates with signal": "0/3", "signal with controls": "1/9"}
{"CDR-L1": "EGRSLRYYYAN", "CDR-L2": "QKNNRPS", "CDR-L3": "KSRDSSGFQVF", "log10 Kd (nM), mean": "nd", "replicates with signal": "0/3", "signal with controls": "1/9"}
{"CDR-L1": "EGDSMRVYYAN", "CDR-L2": "GKNNRPS", "CDR-L3": "SSRDSSGFDVF", "log10 Kd (nM), mean": "nd", "replicates with signal": "0/3", "signal with controls": "3/9"}
{"CDR-L1": "EGDSLRYYYMN", "CDR-L2": "GKTNRPS", "CDR-L3": "SSQDSSGFQVF", "log10 Kd (nM), mean": "nd", "replicates with signal": "0/3", "signal with controls": "1/9"}
{"CDR-L1": "EGDSLRYYYAP", "CDR-L2": "GVNNRPS", "CDR-L3": "SSRDSSGFQVF", "log10 Kd (nM), mean": "nd", "replicates with signal": "0/3", "signal with controls": "2/9"}
{"CDR-L1": "EEDSLRYYYAQ", "CDR-L2": "GKNNRPS", "CDR-L3": "SSRDSLGFQVF", "log10 Kd (nM), mean": "nd", "replicates with signal": "0/3", "signal with controls": "1/9"}

Empty control strains, which show no peptide, gave a signal in 28% of pairings with library AAYL52; the median was 3.91 and 95% of these signals were weaker than 2.90. No background was subtracted. For each scFv, signals with the empty controls are counted beside the result.